In PMC8672774, “Discovery of cell active macrocyclic peptides with on-target inhibition of KRAS signaling” (Chemical Science, 2021) one finds EC50 data, which are given here for four compounds.

Where two headings read alike, the source gives them in different places.

What is called EC50 is the midpoint of the concentration-response curve.

Experiment [1] can be described thus: NanoClick cell permeability assay. It is filed as in vitro ADME.
For experiment [2], the system named is pERK in A375 cells (KRAS^WT, BRAF^V600E). The experiment is described as follows: Cellular phospho-ERK assay in A375 cells (counter-screen). It is filed as cell-based. For orientation: The purpose of a counterscreen is to sort out artefacts and off-target activity.
The mark [3] stands for this setting: read-out: NanoClick EC50 4 h, 4 h.
The mark [4] stands for this setting: read-out: NanoClick EC50 18 h, 18 h.

On to `CC[C@H](C)[C@@H]1NC(=O)[C@H](Cc2ccc(O)cc2)NC(=O)[C@H](CC(C)C)NC(=O)[C@@H]2CCCN2C(=O)[C@H](NC(=O)[C@H](CCCCN=[N+]=[N-])NC(C)=O)CSCSC[C@@H](C(=O)N[C@@H](CCCNC(=N)N)C(N)=O)NC(=O)[C@H](C(C)C)NC(=O)[C@@H]2CCCN2C(=O)[C@H](CC(=O)O)NC(=O)[C@H](Cc2ccc(O)cc2)NC(=O)[C@H](CO)NC1=O` [Compound 24], for which the EC50 in experiment [1] (setting [3]) was above 10 µM; in experiment [1] (setting [4]), 4.46 µM.
As to `CC[C@H](C)[C@@H]1NC(=O)[C@H](Cc2ccc(O)cc2)NC(=O)[C@H](CC(C)C)NC(=O)[C@@H]2CCCN2C(=O)[C@H](NC(=O)[C@H](CCCCN=[N+]=[N-])NC(C)=O)CSCSC[C@@H](C(N)=O)NC(=O)[C@H](C(C)C)NC(=O)[C@@H]2CCCN2C(=O)[C@H](CC(=O)O)NC(=O)[C@H](Cc2ccc(O)cc2)NC(=O)[C@H](CO)NC1=O` [Compound 25], the EC50 is above 10 µM in experiment [1] (setting [3]) and 5.14 µM in experiment [1] (setting [4]).
As for `CC[C@H](C)[C@@H]1NC(=O)[C@H](Cc2ccc(O)cc2)NC(=O)[C@H](CC(C)C)NC(=O)[C@@H]2CCCN2C(=O)[C@H](NC(=O)[C@H](CCCNC(=N)N)NC(=O)[C@H](CCCNC(=N)N)NC(=O)[C@H](CCCCN=[N+]=[N-])NC(C)=O)CSCSC[C@@H](C(=O)N[C@@H](CCCNC(=N)N)C(=O)N[C@@H](CCCNC(=N)N)C(N)=O)NC(=O)[C@H](C(C)C)NC(=O)[C@@H]2CCCN2C(=O)[C@H](CC(=O)O)NC(=O)[C@H](Cc2ccc(O)cc2)NC(=O)[C@H](CO)NC1=O` [MP-1687], the figures for the EC50 in experiment [1] (setting [3]) and in experiment [1] (setting [4]) were 4.55 µM and 4.71 µM, respectively.
Consider `CC[C@H](C)[C@@H]1NC(=O)[C@H](Cc2ccc(O)cc2)NC(=O)[C@H](CC(C)C)NC(=O)[C@@H]2CCCN2C(=O)[C@H](NC(=O)[C@@H](CCCNC(=N)N)NC(=O)[C@@H](CCCNC(=N)N)NC(=O)[C@@H](CCCNC(=N)N)NC(=O)[C@@H](CCCNC(=N)N)NC(=O)[C@H](CCCCN=[N+]=[N-])NC(C)=O)CSCSC[C@@H](C(=O)N[C@H](CCCNC(=N)N)C(=O)N[C@H](CCCNC(=N)N)C(=O)N[C@H](CCCNC(=N)N)C(=O)N[C@H](CCCNC(=N)N)C(N)=O)NC(=O)[C@H](C(C)C)NC(=O)[C@@H]2CCCN2C(=O)[C@H](CC(=O)O)NC(=O)[C@H](Cc2ccc(O)cc2)NC(=O)[C@](C)(CO)NC1=O` [MP-3995], for which the EC50 in experiment [1] (setting [3]) was 1.78 µM; in experiment [1] (setting [4]) it was 0.0321 µM; in experiment [2] (read-out: A375 pERK EC50 1 h, 1 h treatment) it was above 50 µM; in experiment [2] (read-out: A375 pERK EC50 18 h, 18 h treatment), above 50 µM.
